Values joined by “and” are separate entries in the source; they are usually repeats but may differ in a detail not shown here. Identical values can stand only once.
Legend:
Experiment in all cases: Synergy of cannabidiol with cell-wall disrupting agent (CBD MIC in combination, FICI)
[1] = system: Enterobacter cloacae CI Patercon BoxNo: 79 (GN_016), MDR; conditions: Example 8, CBD + MCC_00636, calculated with CBD MIC 256 μg/mL
[2] = system: Pseudomonas aeruginosa ATCC 27853 (GN_042); assay type: cell-based; conditions: Example 6, CBD + Polymyxin B, calculated with CBD MIC 256 μg/mL, listed as CBD
Protocol: (§1) The compounds were stored short term at 4° C.
(§2) Analysis was performed using Microsoft Excel.

[3] = system: Escherichia coli ATCC 25922 (GN_001); assay type: cell-based; conditions: calculated with CBD MIC 256 μg/mL
Protocol: as §1, §2

[4] = system: Escherichia coli HS71 (GN_110), CTX-M; assay type: cell-based; conditions: Example 9, CBD + MCC_09222, calculated with CBD MIC 256 μg/mL
Protocol: as §1, §2

[5] = system: Klebsiella pneumoniae BAA-2146 (GN_045), NDM-1; assay type: cell-based; conditions: Example 9, CBD + MCC_09222, calculated with CBD MIC 256 μg/mL
Protocol: as §1, §2

[6] = system: Acinetobacter baumannii ATCC 19606 (GN_034); assay type: cell-based
Protocol: as §1, §2

[7] = system: Klebsiella pneumoniae ATCC 13883 (GN_003 / GN_004); assay type: cell-based; conditions: Example 4, CBD + MCC_006442, calculated with CBD MIC 256 μg/mL, listed as CBD
Protocol: as §1, §2

SMILES: C=C(C)C1CCC(C)=CC1c1c(O)cc(CCCCC)cc1O (stereo not drawn) [Cannabidiol, 2-[3-methyl-6-(1-methylethenyl)-2-cyclohexen-1-yl]-5-pentyl-1,3-benzenediol]
- FICI range [1]: 0.04-1.02
- FICI range [2]: 0.26-1.13 and 0.27-1.13
- FICI range ([3]; Example 3, CBD + colistin): 0.16-1.06
- FICI range ([3]; Example 6, CBD + Polymyxin B, listed as CBD): 0.26-1.13 and 0.27-1.13
- FICI range [4]: 0.08-4
- FICI range [5]: 0.13-1.03
- FICI range ([6]; Example 2, CBD + cefuroxime, calculated with CBD MIC 256 μg/mL): 0.38-2
- FICI range ([6]; Example 3, CBD + colistin, calculated with CBD MIC 256 μg/mL): 0.05-1
- FICI range ([6]; Example 4, CBD + MCC_006442, calculated with CBD MIC 256 μg/mL): 0.07-1.02
- FICI range ([6]; Example 5, CBD + aztreonam, calculated with CBD MIC 256 μg/mL): 0.38-1.13
- FICI range ([6]; Example 5, CBD + cefepime, calculated with CBD MIC 256 μg/mL): 0.38-1.13
- FICI range [7]: 0.25-1.13 and 0.13-1.06

From US20230013669A1, “Antibacterial Treatment Using a Cannabinoid and an Active Agent” (priority 2019, published 2023)
